Ab-14 heavy chain CDR variants: yeast mating affinities

Source: Engelhart et al. 2022 (doi:10.1038/s41597-022-01779-4), MIT Lincoln Laboratory and A-Alpha Bio; data file from the FLAb repository.

The target is the same throughout: PDVDLGDISGINAS, from the HR2 region of SARS-CoV-2 spike.

Parent scFv Ab-14: VH joined to VL by a 15-residue (Gly4Ser)3 linker. Changes lie in the heavy chain CDRs alone.
VH: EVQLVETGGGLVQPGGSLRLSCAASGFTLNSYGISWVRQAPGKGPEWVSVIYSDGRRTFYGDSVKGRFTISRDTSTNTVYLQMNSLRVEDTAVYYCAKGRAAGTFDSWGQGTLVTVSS
VL: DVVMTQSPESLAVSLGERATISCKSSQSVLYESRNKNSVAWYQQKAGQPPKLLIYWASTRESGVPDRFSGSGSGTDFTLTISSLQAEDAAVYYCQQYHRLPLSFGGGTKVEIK

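Phage display of a naive human antibody library on the peptide gave the parent. The library (AAYL49) carries one to three amino acid substitutions per variant, with no insertions or deletions. Affinity was read by AlphaSeq, a pooled yeast mating assay with surface-displayed partners. Mating (16 h, 30 °C) was followed by selection of diploids and sequencing of their barcodes. Scores were corrected for input abundance and mapped to Kd with protein pairs of known affinity run in the same pool. Mating was done three times.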

Each variant is given by its three heavy chain CDRs, as the data file delimits them; those of the parent are GFTLNSYGIS, VIYSDGRRTFYGDSVK, GRAAGTFDS.
All variants listed here change Y60 of the VH, counted from its first residue.
Kd is apparent (estimated from mating counts) and averaged on the log scale over replicates with a signal. Smaller is tighter.
An entry "no signal" has no value in the source: the pair was not observed among the diploids in any replicate. This suggests poor binding but is not conclusive.
As a blank, each scFv also met three strains without target: over library AAYL49, 15% of these pairings were detected, typically at 11 µM and seldom below 680 nM.

Variant GSTLNSYGIS | VIYSDGRRTFGGDSVK | GRAATTFDS gave no signal (0 of 3 replicates). With GFMLNSYGIS | VIYSDGRRTFMGDSVK | GRAAGTFDH the result was 1.2 µM (2 of 3 replicates). For GFTLNSYGIS | VIPSDGRPTFEGDSVK | GRAAGTFDS, the assay gave no signal (0 of 3 replicates). Variant GFTKNSYGIS | VIYSDGRRTFPGDSVK | GTAAGTFDS gave no signal (0 of 3 replicates). With GFTLNSYGIS | VIYADGRRTFVGDSVK | FRAAGTFDS the result was no signal (0 of 3 replicates). With GFTLNSYGIS | KIYSDGRRTFKGDSVK | GRAANTFDS the result was 60 µM (1 of 3 replicates). With GFTLNSYGIS | VIYFDGRRTFTGDSVK | GRAAGTFDH the result was no signal (0 of 3 replicates).

Variant GFTLNSYRIS | VIYSDGRRTFEGDSVK | GRAAGTFDC gave 31 µM (1 of 3 replicates). Variant GFTLNSYGIS | VIYSDGRKTFDGDMVK | GRAAGTFDS gave 410 µM (2 of 3 replicates). With GFTLNSAGIS | VISSDGRRTFQGDSVK | GRAAGTFDS the result was no signal (0 of 3 replicates). For GFTLNSYGIS | VIYSDGRRTFDGMSVK | GRAAGTFDS, the assay gave no signal (0 of 3 replicates). Variant GFTYNSYGIS | VIYSDGRRTFEGDSVK | GRQAGTFDS gave no signal (0 of 3 replicates). For GFTMNSYGIS | VIYSDGRRTFWGDSVK | GRAAGTRDS, the assay gave no signal (0 of 3 replicates). Variant GFYLNSYGIS | VYYSDGRRTFCGDSVK | GRAAGTFDS showed no signal (0 of 3 replicates).

Variant GFTLNSYGIS | VIYSDGRRTFMGDSVK | GRAEGYFDS gave 49 µM (2 of 3 replicates). For GFTLNSYGIS | VIYSDGRRTREGDSVK | GKAAGTFDS, the assay gave no signal (0 of 3 replicates). Variant GFTLNSYGIS | VIYSDHRRTFRGDGVK | GRAAGTFDS gave no signal (0 of 3 replicates). With GFTLNSYGIS | VIYSDGRRTFMGDSVK | GRAAVTFDR the result was no signal (0 of 3 replicates). Variant GFTLNSYGIS | VIDSDGRRTFCGDSVK | GRAAGTFES showed no signal (0 of 3 replicates). For GFTLNSYGIS | VIYSDGRRTFRGDSVK | GRAAGGFDE, the assay gave no signal (0 of 3 replicates). Variant GFTLNSYGIS | VIYSYGRRTEAGDSVK | GRAAGTFDS gave 15 µM (1 of 3 replicates).

Variant GFTLNSYGIS | VIYSLGRRTFCGDSVK | GRAAGMFDS gave no signal (0 of 3 replicates). Variant TFTLNFYGIS | VIYSDGRRTFKGDSVK | GRAAGTFDS gave 110 µM (3 of 3 replicates). Variant GFTLNSRGIS | VIYSDSRRTFGGDSVK | GRAAGTFDS gave no signal (0 of 3 replicates). For CFTLNSYGIS | VIYSDGRRTITGDSVK | GRAAGTFDS, the assay gave no signal (0 of 3 replicates). Variant GFTLNSYGIS | VIYSDGRRTFWGDSKK | GRAAMTFDS gave 25 µM (1 of 3 replicates). Variant GFTDNSYGIS | VIYSDGRGTFFGDSVK | GRAAGTFDS gave 700 nM (1 of 3 replicates). For GVVLNSYGIS | VIYSDGRRTFSGDSVK | GRAAGTFDS, the assay gave no signal (0 of 3 replicates).

Variant GFTLNSYGWS | VIYSDGRRTFDGDSVK | GRAAGKFDS showed no signal (0 of 3 replicates). Variant GFTLNSYGCS | VIYSDSRRTFVGDSVK | GRAAGTFDS showed 33 µM (3 of 3 replicates). Variant GYTLNSYGIS | VIYSDGRRTFSGDSVK | GRAAGTFDS gave 6.8 µM (2 of 3 replicates). For GFGLNSYGIS | VIYSDGRRTFQGDSVK | GRAFGTFDS, the assay gave 19 µM (2 of 3 replicates). For CFTLNSYGIS | VIYSDGRRTFRGDSVK | GRAAGTFTS, the assay gave no signal (0 of 3 replicates). For GFTLNSDGIS | VIYSSGRRTFKGDSVK | GRAAGTFDS, the assay gave no signal (0 of 3 replicates). Variant GFTLYSYGIS | VIYSDGRRTFTGDSVK | GSAAGTFDS gave 3.0 µM (3 of 3 replicates).

For GFTLNSYGIS | VIWIDGRRTFQGDSVK | GRAAGTFDS, the assay gave no signal (0 of 3 replicates). For GFHGNSYGIS | VIYSDGRRTFDGDSVK | GRAAGTFDS, the assay gave no signal (0 of 3 replicates). With GFTLNSYGIF | VIYSDGRRTFWGDSVK | GRAAGTFDS the result was no signal (0 of 3 replicates). With GFTLNSYEIS | VIYGDGRRTFTGDSVK | GRAAGTFDS the result was no signal (0 of 3 replicates). Variant GFTLFSYGIS | VIYSDGRRTFPGDSVK | GRAAGTFDS gave no signal (0 of 3 replicates). With GFTLNSYGIC | VIYSDGRRTFKGDSVK | GRATGTFDS the result was 41 µM (1 of 3 replicates).

6 of these entries, quoted again:

CDR-H1	CDR-H2	CDR-H3	apparent Kd	detected
GFHGNSYGIS	VIYSDGRRTFDGDSVK	GRAAGTFDS	no signal	0 of 3
GFTKNSYGIS	VIYSDGRRTFPGDSVK	GTAAGTFDS	no signal	0 of 3
GFTLNSYGIS	KIYSDGRRTFKGDSVK	GRAANTFDS	60 µM	1 of 3
GFTYNSYGIS	VIYSDGRRTFEGDSVK	GRQAGTFDS	no signal	0 of 3
GYTLNSYGIS	VIYSDGRRTFSGDSVK	GRAAGTFDS	6.8 µM	2 of 3
GFGLNSYGIS	VIYSDGRRTFQGDSVK	GRAFGTFDS	19 µM	2 of 3

For reference, the parent read 4.4 nM as the reference entry and 13 µM (one replicate of three) as a member of this library.